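Where inhibition never reached the appropriate level, the endpoint shown equals the highest concentration tested. Otherwise, values were interpolated linearly from a five-concentration, 48-hour dose response in 96-well plates. GI50 is the concentration that inhibits growth by half. TGI is the concentration that stops growth completely.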
Assays:
Assay in all cases: DTP human tumour cell line panel, 48 h
[1] = tested on: DLD-1 colon
[2] = tested on: DMS 114 small cell lung
[3] = tested on: HOP-18 NSCLC
[4] = tested on: LXFL 529 NSCLC
[5] = tested on: SNB-78 CNS
[6] = tested on: M19-MEL melanoma

`Nc1ccccc1Nc1ccccc1C(=O)[O-].Nc1ccccc1Nc1ccccc1C(=O)[O-].[Cu+2]` showed a GI50 [1] greater than 100 µM, a TGI [1] greater than 100 µM and a GI50 [2] greater than 100 µM. For the same compound, the TGI [2] was greater than 100 µM, the GI50 [3] was greater than 100 µM and the TGI [3] was greater than 100 µM. For the same compound, the GI50 [4] was greater than 100 µM, the TGI [4] was greater than 100 µM and the GI50 [5] was greater than 100 µM. It also gave a TGI [5] greater than 100 µM, a GI50 [6] of 18.1 µM and a TGI [6] of 44.5 µM.

From PubChem BioAssay (NCI)
